# Measured values as given in PubChem BioAssay AID1259313 (Sanford-Burnham Center for Chemical Genomics, 2017).
# The entries are a selection whose mix differs from that of the whole data set. Activity calls are given as the source filed them.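 Rule for the calls: active = melting temperature shift of at least 10% of the positive control shift, at one fixed dose; inactive = the rest.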
# System: Glutamate receptor ionotropic, NMDA 3A (GRIN3A) ligand-binding domain
# Assay: binders of NR3A ligand-binding domain, primary screen, biophysical, differential scanning fluorimetry, uHTS (AID 1259313)
# Details: NR3A LBD differential scanning fluorimetry, at 25 µM, stronger effect = higher value, 0% = protein alone, 100% = glycine-bound protein
row,Compound,Tm shift relative to glycine control
1,CC(C)c1ccc(OP(=O)(Nc2ccccn2)Oc2ccccc2F)cc1 (configuration not stated),inactive: -1.38%
2,COC(=O)C1(C)COP(=O)(N2CCCCCC2)OC1 (configuration not stated),inactive: -0.18%
3,ClCCSc1nnc(-c2cccnc2)o1,inactive: 0.09%
4,O=C(OC1CN2CCC1CC2)c1cccc2[nH]cnc12 (configuration not stated),inactive: 0.44%
5,CCN(CC)C(=S)SC(NC=O)C(Cl)(Cl)Cl (configuration not stated),inactive: 0.08%
6,CC(C)NC(=O)NP(=O)(Oc1ccccc1)Oc1ccccc1,inactive: -0.44%
7,O=[N+]([O-])c1cc([N+](=O)[O-])c(-c2ccn[nH]2)s1,inactive: 0.51%
8,C[As](=O)(O)c1cccc(C(=O)O)c1,inactive: -6.62%
9,O=[As](O)(c1ccc(O)cc1)c1ccccc1O,inactive: -1.33%
10,COc1cc(C(=O)NCC2(N3CCOCC3)CCCCC2)ccc1OCC(C)C,inactive: 0.17%
11,O=[N+]([O-])c1ccc(-c2cc([N+](=O)[O-])c(O)c([N+](=O)[O-])c2)cc1,inactive: 6%
12,Cc1ccc2nc3c(c(C)c2c1)CC(C(Cl)Cl)S3 (configuration not stated),inactive: -6.35%
13,Cc1ccc(OP(=O)(Nc2ccc([N+](=O)[O-])cn2)Oc2ccc(C)cc2)cc1,inactive: -2.68%
14,NC(=O)Nc1ccc([As](=O)(O)O)cc1,inactive: -2.27%
15,CN(C)C(=O)c1cc([N+](=O)[O-])cc2c1-c1c(cc([N+](=O)[O-])cc1[N+](=O)[O-])C2=O,inactive: 0.54%
16,O=[N+]([O-])c1ccc2c(c1)nnn2O,inactive: 1.28%
17,CN(C(=O)Cc1ccc(Cl)c(Cl)c1)[C@H]1CC[C@@]2(CCCO2)C[C@@H]1N1CCCC1,inactive: 1.26%
18,N#CCCN(C(=O)COC(=O)C(O)(c1ccccc1)c1ccccc1)c1ccc(F)cc1,inactive: -4.66%
19,CCOP1(=S)c2c(C)nn(CCC#N)c2N=C(c2ccc(F)cc2)N1C (configuration not stated),inactive: -1.56%
20,CN(C(=O)Cc1ccccc1)[C@@H]1CC[C@]2(CCCO2)C[C@H]1N1CCCC1,inactive: -0.47%
21,CS(=O)(=O)c1cc([N+](=O)[O-])c2no[n+]([O-])c2c1,inactive: -3.37%
22,CCOP1(=S)c2c(C)nn(CCC#N)c2N=C(c2ccccc2F)N1C (configuration not stated),inactive: -2.52%
23,O=P(Nc1nccs1)(c1ccccc1)c1nc2ccccc2s1 (configuration not stated),inactive: 0.51%
24,O=P(Nc1nccs1)(Oc1ccccc1)Oc1ccccc1,inactive: 1.51%
25,Nc1ccccc1[As](=O)(O)c1ccccc1,inactive: 1.18%
26,O=C(O)COc1ccc([As](=O)(O)O)cc1[N+](=O)[O-],inactive: -0.8%
27,CCCOP(=S)(Nc1nc(N)cc(=O)[nH]1)OCCC,inactive: -6.62%
